# Test results reported in article PMC5522078, “Discovery and characterization of small molecules targeting the DNA-binding ETS domain of ERG in prostate cancer” (Oncotarget, 2017).
# Chains of the proteins cited; added tags and fusions are not shown.
# UniProt P11308, whole entry: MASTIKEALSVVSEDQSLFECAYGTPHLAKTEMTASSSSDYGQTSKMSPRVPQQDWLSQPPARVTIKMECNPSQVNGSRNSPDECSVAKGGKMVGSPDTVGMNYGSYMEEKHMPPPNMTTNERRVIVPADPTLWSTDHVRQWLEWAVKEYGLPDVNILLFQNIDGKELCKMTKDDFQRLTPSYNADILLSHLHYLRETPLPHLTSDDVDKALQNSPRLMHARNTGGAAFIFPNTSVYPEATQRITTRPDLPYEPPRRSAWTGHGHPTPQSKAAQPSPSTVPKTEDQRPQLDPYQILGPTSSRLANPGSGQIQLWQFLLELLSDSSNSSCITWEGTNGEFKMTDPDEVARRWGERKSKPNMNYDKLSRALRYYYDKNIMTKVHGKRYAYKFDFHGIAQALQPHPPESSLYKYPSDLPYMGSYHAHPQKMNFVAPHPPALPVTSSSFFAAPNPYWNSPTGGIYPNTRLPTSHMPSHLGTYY
# Target: ERG (Homo sapiens, UniProt P11308)
# Test: Dual reporter luciferase assay (pETS-luc) in PNT1B-ERG cells
# Settings: read-out: IC50 in luciferase assay (pETS-luc reporter activity), PNT1B-ERG cells, 0.1-100 μM, 48 h treatment
# Procedure: All of the compounds selected from the virtual screening were tested in a luciferase-based ERG-responsive reporter assay, using two ERG-overexpressing cell lines, VCaP and PNT1B-ERG, previously developed in house. […] Data were normalized first to Renilla luciferase and then to the DMSO-media control on each plate, unless otherwise stated. Initial hit compounds were identified as those with an average normalized luciferase reading (firefly luciferase/Renilla luciferase readings) that is 60% or less of the average normalized luciferase reading of the DMSO-media control (i.e. 40% or more reduction of luciferase activity) at 10 μM. Representative example of raw Renilla luciferase readings presented in Supplementary Figure 9B. The luciferase assays were repeated for each lead compound under multiple concentrations (0.1 to 100 μM) to establish a dose-dependent response and an IC50 value. AR reporter assay was performed as previously described.
row,Compound,IC50 [nM]
1,Cc1cc(C(C)(C)C)ccc1C=NN=C1NC(=O)C(CC(=O)O)S1 (stereo not drawn),2000
2,CC(C)(C)c1ccc(C=NN=C2NC(=O)C(CC(=O)O)S2)c(F)c1 (stereo not drawn),8000
3,O=C(O)CC1SC(=NN=Cc2ccc(C3CCC3)cc2)NC1=O (stereo not drawn),1000
4,CC(C)(C)c1ccc(C=NN=C2NC(=O)C(CC(=O)O)S2)cc1F (stereo not drawn),4000
5,Cc1cc(C=NN=C2NC(=O)C(CC(=O)O)S2)ccc1C(C)(C)C (stereo not drawn),4000

# Next, values leading:
row,IC50 [nM],Compound
1,1000,CC(C)(C)c1ccc(C=NN=C2NC(=O)C(CC(=O)O)S2)c(Cl)c1 (stereo not drawn)
2,3000,CC(C)(C)c1ccc(C=NN=C2NC(=O)C(CC(=O)O)S2)c(O)c1 (stereo not drawn)
3,8000,CC(C)(C)c1ccc(C=NN=C2NC(=O)C(CC(=O)O)S2)cc1Cl (stereo not drawn)
4,2000,CC(C)(C)c1ccc(C=NN=C2NC(=O)C(CC(=O)O)S2)cc1 (stereo not drawn)
